Experimental findings from ChEMBL document CHEMBL1136566, “Synthesis, opioid receptor binding, and functional activity of 5'-substituted 17-cyclopropylmethylpyrido[2',3':6,7]morphinans” (Bioorg Med Chem Lett, 2003) are described below.

The chains behind the UniProt entries cited, without tags or fusion partners.
UniProt P32300, whole entry: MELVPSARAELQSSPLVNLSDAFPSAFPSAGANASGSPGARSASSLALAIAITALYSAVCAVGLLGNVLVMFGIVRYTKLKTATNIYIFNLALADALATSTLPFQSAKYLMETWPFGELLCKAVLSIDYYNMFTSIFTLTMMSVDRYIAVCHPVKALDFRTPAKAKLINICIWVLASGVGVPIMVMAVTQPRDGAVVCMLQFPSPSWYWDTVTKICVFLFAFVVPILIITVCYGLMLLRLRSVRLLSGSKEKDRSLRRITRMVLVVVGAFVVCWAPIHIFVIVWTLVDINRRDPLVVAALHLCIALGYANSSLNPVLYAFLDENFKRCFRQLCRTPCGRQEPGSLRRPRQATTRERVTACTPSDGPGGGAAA
UniProt P97266, whole entry: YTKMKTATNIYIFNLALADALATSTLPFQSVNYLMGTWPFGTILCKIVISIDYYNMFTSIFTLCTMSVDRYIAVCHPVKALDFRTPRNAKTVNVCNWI

The target in experiment [1] is Delta-type opioid receptor (Mus musculus) (UniProt P32300). Kind of experiment: Antagonist potency against delta opioid receptor was measured in mouse vas-deferens using DPDPE. The format is functional.
The target in experiment [2] is Mu-type opioid receptor (Cavia porcellus) (UniProt P97266). As to the kind of experiment: Antagonist potency against mu opioid receptor was measured in guinea-pig ileal longitudinal muscle using PL-017. The format is functional.

Turning to `CCOC(=O)c1cnc2c(c1)C[C@@]1(O)[C@H]3Cc4ccc(O)c5c4[C@@]1(CCN3CC1CC1)[C@H]2O5`, the Ke was determined as 20 nM in experiment [1] and 87 nM in experiment [2].
